Assay results as given in patent US20240092745A1, “DRUGS AND COMPOSITIONS FOR THE TREATMENT OF OCULAR DISORDERS” (Graybug Vision, Inc., priority 2017, published 2024).

Assay: Determination of drug solubility in aqueous and organic solvent;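 also: solid drug suspended at 50 mg/mL nominal in each solvent, vortexed and sonicated, then dissolved concentration in filtered supernatant quantified by HPLC against a calibration curve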
Assay type: physicochemical
Details: for Solubility Water: drug added to 50 mg/mL

Substance | Solubility DCM (Table 3A) | Solubility DMSO (Table 3A) | Solubility Water (Table 3A) | Solubility DCM (Table 3B) | Solubility DMSO (Table 3B) | Solubility Water (Table 3B)
dorzolamide-stearyl PLA (n=8) [Dorzolamide-Stearyl PLA (n = 8)] | >50 mg/mL | >50 mg/mL | <0.1 mg/mL |  |  | 
Dorzolamide-PLA (n = 5) |  |  |  | >50 mg/mL | >50 mg/mL | <1.0 mg/mL
